System: red blood cell suspension
Assay: In vitro human hemolysis assay
Conditions: concentrations as high as 200 µM, 37 °C, 45 minutes

With `C[C@@H](OC[C@@]1(c2ccccc2)CC[C@]2(CCC(=O)N2)CN1C(=O)OCSSCCS(=O)(=O)O)c1cc(C(F)(F)F)cc(C(F)(F)F)c1` [Example 42] the hemolytic activity was “no hemolytic activity”.

Source: EP4741406A1, “NEUROKININ-1 RECEPTOR ANTAGONIST COMPOUND” (Creadev (Nanjing) Pharmaceutical Technology Co., Ltd., priority 2023, dated 2025)
